The numbers were not newly measured in patent publication US20240252467A1, “TREATMENT OF MENTAL ILLNESS VIA ADMINISTRATION OF BUNTANETAP AND ANALOGUES THEREOF” (ANNOVIS BIO, INC., priority 2023, published 2024), which cites them from elsewhere.

This data set deals with early AD patients, early PD patients. The following applies: plasma, up to 80 mg QD; cited from earlier work.

Structures are written as SMILES.

On to `CN1CC[C@]2(C)c3cc(OC(=O)Nc4ccccc4)ccc3N(C)C12` (stereo partly drawn) [buntanetap, (3aR)-1,3a,8-trimethyl-1,2,3,3a,8,8a-hexahydropyrrolo[2,3-b]indol-5-yl phenylcarbamate], for which the “Cmax and AUC” value is listed as “increased with dose without evidence for a plateau”.
